Laboratory results: paper PMC3885247 (Journal of medicinal chemistry, 2008)

What was measured:
Format in all cases: biochemical
[1] = biological target: T1, pcDHFR (Pneumocystis carinii, UniProt P16184); test: Inhibition of P. carinii DHFR; settings: comparator 8
T1 sequence (P16184 1-206): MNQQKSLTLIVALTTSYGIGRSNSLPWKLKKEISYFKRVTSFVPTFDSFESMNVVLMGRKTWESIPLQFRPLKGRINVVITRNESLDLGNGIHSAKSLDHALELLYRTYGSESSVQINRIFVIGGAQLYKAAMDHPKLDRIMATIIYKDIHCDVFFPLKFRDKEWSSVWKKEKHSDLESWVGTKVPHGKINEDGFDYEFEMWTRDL

[2] = biological target: T2, tgDHFR (Toxoplasma gondii, UniProt Q07422); settings: comparator 8
T2 sequence (Q07422 1-610): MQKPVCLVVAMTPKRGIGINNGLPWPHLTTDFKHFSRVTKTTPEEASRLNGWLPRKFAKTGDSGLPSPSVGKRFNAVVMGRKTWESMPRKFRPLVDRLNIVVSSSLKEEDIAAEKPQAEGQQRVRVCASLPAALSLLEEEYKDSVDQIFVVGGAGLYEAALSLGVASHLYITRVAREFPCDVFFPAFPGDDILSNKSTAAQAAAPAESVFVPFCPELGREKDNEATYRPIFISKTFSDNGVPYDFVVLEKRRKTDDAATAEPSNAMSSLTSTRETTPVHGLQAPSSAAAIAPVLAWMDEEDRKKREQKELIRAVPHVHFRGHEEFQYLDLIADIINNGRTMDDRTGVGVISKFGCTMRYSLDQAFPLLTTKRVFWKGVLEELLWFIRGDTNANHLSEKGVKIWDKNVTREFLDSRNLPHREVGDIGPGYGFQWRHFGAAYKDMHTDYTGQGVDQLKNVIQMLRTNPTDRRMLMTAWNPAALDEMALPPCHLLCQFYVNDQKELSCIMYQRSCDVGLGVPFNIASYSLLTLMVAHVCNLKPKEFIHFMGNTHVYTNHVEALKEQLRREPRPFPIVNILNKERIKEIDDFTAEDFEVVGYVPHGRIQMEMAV

[3] = biological target: T3, maDHFR (Mycobacterium avium, UniProt O30463); test: Inhibition of M. avium DHFR
T3 sequence (O30463 1-181): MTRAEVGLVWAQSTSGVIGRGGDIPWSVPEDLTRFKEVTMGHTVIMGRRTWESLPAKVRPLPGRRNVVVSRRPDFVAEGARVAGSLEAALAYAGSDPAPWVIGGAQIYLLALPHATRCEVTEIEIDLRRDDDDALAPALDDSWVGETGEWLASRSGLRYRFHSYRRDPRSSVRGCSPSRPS

With `CCCN(Cc1cc(OC)ccc1OC)c1ccc2nc(N)nc(N)c2c1` [Compound 10, 2,4-Diamino-6-[N-(2,5-dimethoxybenzyl)-N-propylamino]quinazoline] as the compound, how does the “Fold less potent against pcDHFR than 8” value [1] read?
Its value is 4 fold.

And the “Fold decrease in potency against tgDHFR compared to 8” value [2]?
Its value is 3 fold.

What about the “Selectivity ratio rl/ma (IC50 rlDHFR/IC50 maDHFR)” value [3] of the same compound?
Its value is 1.6.

And the “Fold decrease in potency against maDHFR compared to 8” value ([3]; comparator 8)?
Its value is 3 fold.

And the “Fold less selective for maDHFR versus rlDHFR compared to 8” value ([3]; comparator 8)?
Its value is 3 fold.
